Measured values published in patent US12377086B2, “Therapeutic methods, combinations and kits” (priority 2021, dated 2025).

Protein sequences, listed by entry. Tags and fused reporters are not part of them.
UniProt C7C422, whole entry, looked up, species assumed: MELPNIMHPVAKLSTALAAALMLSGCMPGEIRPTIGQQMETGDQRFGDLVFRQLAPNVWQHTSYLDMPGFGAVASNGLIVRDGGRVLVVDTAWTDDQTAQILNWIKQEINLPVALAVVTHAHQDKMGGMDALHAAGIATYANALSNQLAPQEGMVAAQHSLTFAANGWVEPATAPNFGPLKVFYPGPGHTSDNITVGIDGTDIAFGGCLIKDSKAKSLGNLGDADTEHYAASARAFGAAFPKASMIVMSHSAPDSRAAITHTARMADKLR

Experiments:
Assay type in all cases: biochemical
NDM-1 [1] = biological target: T1, NDM-1 (Klebsiella pneumoniae, UniProt C7C422); conditions: 50 μM compound, 5 nM MBL, 10 μM nitrocefin, 30 mins
NDM-1 [2] = biological target: T1, NDM-1; assay: Dose response enzymatic inhibition assay and inhibition constant, NDM-1; conditions: for IC50: 5 nM MBL, 10 μM nitrocefin; for NDM-1 LE (ligand efficiency): LE = −1.38 log (Ki)/N, N = number of heavy atoms
VIM-2 = VIM-2 (Pseudomonas aeruginosa, UniProt Q5U7L7); assay: biochemical
[3] = nitrocefin substrate, competitive-inhibition fit, read-out: NDM-1 Ki

O=[N+]([O-])c1ccc(O)c2ncccc12 [Compound 41]
NDM-1 percentage inhibition (NDM-1 [1]): 89% | IC50 (NDM-1 [2]): 1000 nM | NDM-1 LE (ligand efficiency) (NDM-1 [2]): 0.61 | Ki (NDM-1 [2]; [3]): 580 nM

Nc1ccc(O)c2ncccc12 [Compound 42]
NDM-1 percentage inhibition (NDM-1 [1]): 86% | IC50 (NDM-1 [2]): 1700 nM | NDM-1 LE (ligand efficiency) (NDM-1 [2]): 0.69 | Ki (NDM-1 [2]; [3]): 990 nM

O=C(O)c1cnc2c(O)cccc2c1 [Compound 43]
NDM-1 percentage inhibition (NDM-1 [1]): 90% | IC50 (NDM-1 [2]): 1900 nM | NDM-1 LE (ligand efficiency) (NDM-1 [2]): 0.62 | Ki (NDM-1 [2]; [3]): 490 nM

O=C(O)c1ccnc2c(O)cccc12 [Compound 44]
NDM-1 percentage inhibition (NDM-1 [1]): 88% | IC50 (NDM-1 [2]): 1900 nM | NDM-1 LE (ligand efficiency) (NDM-1 [2]): 0.61 | Ki (NDM-1 [2]; [3]): 660 nM | Ki (VIM-2; nitrocefin substrate, competitive-inhibition fit): 670 nM

O=C(O)c1ccc2cccnc2c1O [Compound 45, 8-hydroxyquinoline-7-carboxylic acid]
IC50 (NDM-1 [2]): 760 nM | Ki (NDM-1 [2]; [3]): 350 nM | Ki (NDM-1 [2]; read-out: Ki against NDM-1): 350 nM | IC50 (VIM-2): 740 nM

Oc1ccc(Cl)c2cccnc12 [Compound 46]
NDM-1 percentage inhibition (NDM-1 [1]): 94% | IC50 (NDM-1 [2]): 5300 nM | NDM-1 LE (ligand efficiency) (NDM-1 [2]): 0.67 | Ki (NDM-1 [2]; [3]): 1400 nM

Oc1c(Cl)cc(Cl)c2cccnc12 [Compound 47]
NDM-1 percentage inhibition (NDM-1 [1]): 90% | IC50 (NDM-1 [2]): 6400 nM | NDM-1 LE (ligand efficiency) (NDM-1 [2]): 0.62 | Ki (NDM-1 [2]; [3]): 1300 nM

Oc1c(I)cc(Cl)c2cccnc12 [Compound 48, Clioquinol, reference compound]
NDM-1 percentage inhibition (NDM-1 [1]): 89% | IC50 (NDM-1 [2]): 4800 nM | NDM-1 LE (ligand efficiency) (NDM-1 [2]): 0.63 | Ki (NDM-1 [2]; [3]): 1200 nM

Oc1c(Br)cc(Br)c2cccnc12 [Compound 49]
NDM-1 percentage inhibition (NDM-1 [1]): 93%

Cc1ccc2c(Cl)cc(Cl)c(O)c2n1 [Compound 50]
NDM-1 percentage inhibition (NDM-1 [1]): 93% | IC50 (NDM-1 [2]): 5300 nM | NDM-1 LE (ligand efficiency) (NDM-1 [2]): 0.59 | Ki (NDM-1 [2]; [3]): 1100 nM

Where two headings read alike, the source gives them in different places.
